In patent US6887878B2, “KMST isoeugenol derivatives and pharmaceutical activity” (Ing-Jun Chen, priority 2003, dated 2005) one finds Ki data, which are given here for three compounds.

Chains of the proteins cited; added tags and fusions are not shown.
UniProt P14842, whole entry: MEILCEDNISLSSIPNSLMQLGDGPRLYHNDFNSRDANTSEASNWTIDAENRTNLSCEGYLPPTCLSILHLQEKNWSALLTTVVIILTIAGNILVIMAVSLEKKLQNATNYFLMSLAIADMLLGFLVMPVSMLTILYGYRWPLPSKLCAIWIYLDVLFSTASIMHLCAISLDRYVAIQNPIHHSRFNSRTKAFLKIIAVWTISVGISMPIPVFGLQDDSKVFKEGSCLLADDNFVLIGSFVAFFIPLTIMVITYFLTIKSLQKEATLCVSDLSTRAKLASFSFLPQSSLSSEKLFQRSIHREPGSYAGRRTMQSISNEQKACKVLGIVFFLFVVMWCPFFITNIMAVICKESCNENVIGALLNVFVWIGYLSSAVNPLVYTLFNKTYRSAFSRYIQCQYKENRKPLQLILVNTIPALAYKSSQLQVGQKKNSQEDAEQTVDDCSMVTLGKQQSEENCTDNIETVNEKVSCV
UniProt P19327, whole entry: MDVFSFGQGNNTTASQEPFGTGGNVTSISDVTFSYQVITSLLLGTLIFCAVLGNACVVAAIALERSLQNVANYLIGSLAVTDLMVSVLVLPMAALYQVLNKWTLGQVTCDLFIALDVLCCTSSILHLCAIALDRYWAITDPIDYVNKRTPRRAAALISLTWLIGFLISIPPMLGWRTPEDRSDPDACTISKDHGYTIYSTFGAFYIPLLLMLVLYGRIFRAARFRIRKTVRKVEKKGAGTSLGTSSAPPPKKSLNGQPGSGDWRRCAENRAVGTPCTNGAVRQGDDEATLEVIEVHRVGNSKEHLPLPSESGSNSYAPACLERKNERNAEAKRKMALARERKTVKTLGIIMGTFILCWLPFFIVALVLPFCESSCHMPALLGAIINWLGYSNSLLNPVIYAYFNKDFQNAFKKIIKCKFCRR

In one experiment the target is 5-HT2A receptor (Rattus norvegicus, UniProt P14842). Kind of experiment: [3H]ketanserin receptor binding in rat cortex.
In the next experiment the target is 5-HT1A (Rattus norvegicus, UniProt P19327). Kind of experiment: [3H]WAY100635 receptor binding.

The Ki is a dissociation constant, usually derived from enzyme kinetics or from competition with a known ligand. A lower Ki goes with higher affinity. `CC(CCc1ccccc1)NCC(O)c1ccc(O)c(C(N)=O)c1` (stereo not drawn) [Labetalol] yielded a Ki on 5-HT2A receptor of 612 nM.

Turning to `CC(C)NCC(O)COc1ccc(CC(N)=O)cc1` (stereo not drawn) [Atenolol], the Ki on 5-HT2A receptor is greater than 10000 nM.

In turn, `NCCc1c[nH]c2ccc(O)cc12` [Compound 5-HT, 5-Hydroxytryptamine] yielded an inhibitory constant (Ki) on 5-HT1A of 0.013 nM.
